For the assay, the target named is T1, Alpha 2A (Homo sapiens, UniProt P08913).
T1 construct: expressed in transfected cells; host or cells: NIH-3T3
Description: RSAT assay, alpha 2A receptor. Format: cell-based. The conditions noted are these: transfected NIH-3T3 cells with Gq/i5, NA = not active at concentrations less than 10 micromolar. As for the experimental part: The RSAT assay measures a receptor-mediated loss of contact inhibition that results in selective proliferation of receptor-containing cells in a mixed population of confluent cells. The increase in cell number is assessed with an appropriate transfected marker gene such as -galactosidase, the activity of which can be easily measured in a 96-well format. Receptors that activate the G protein, Gq, elicit this response. Alpha2 receptors, which normally couple to Gi, activate the RSAT response when coexpressed with a hybrid Gq protein that has a Gi receptor recognition domain, called Gq/i5.
NIH-3T3 cells are plated at a density of 2×10^6 cells in 15 cm dishes and maintained in Dulbecco's modified Eagle's medium supplemented with 10% calf serum. […] After washing with phosphate-buffered saline, β-galactosidase enzyme activity is determined by adding 200 μl of the chromogenic substrate (consisting of 3.5 mM o-nitrophenyl-β-D-galactopyranoside and 0.5% nonidet P-40 in phosphate buffered saline), incubating overnight at 30° C. and measuring optical density at 420 nm. The absorbance is a measure of enzyme activity, which depends on cell number and reflects a receptor-mediated cell proliferation. The efficacy or intrinsic activity is calculated as a ratio of the maximal effect of the drug to the maximal effect of a standard full agonist for each receptor subtype. […]

Chains of the proteins cited; added tags and fusions are not shown.
UniProt P08913, whole entry: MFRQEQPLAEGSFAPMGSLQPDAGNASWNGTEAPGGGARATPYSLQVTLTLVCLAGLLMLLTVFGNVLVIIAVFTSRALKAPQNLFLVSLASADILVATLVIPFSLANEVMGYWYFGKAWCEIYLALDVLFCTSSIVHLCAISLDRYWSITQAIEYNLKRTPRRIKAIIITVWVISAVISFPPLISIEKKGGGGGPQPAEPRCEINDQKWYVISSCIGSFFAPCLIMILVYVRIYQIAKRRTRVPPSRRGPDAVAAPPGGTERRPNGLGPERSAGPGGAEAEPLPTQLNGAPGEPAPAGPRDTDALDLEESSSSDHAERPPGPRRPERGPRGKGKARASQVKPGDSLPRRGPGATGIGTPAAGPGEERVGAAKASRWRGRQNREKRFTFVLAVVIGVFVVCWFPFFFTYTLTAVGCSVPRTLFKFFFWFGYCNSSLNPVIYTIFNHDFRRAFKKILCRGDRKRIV

SMILES strings stand for the structures.

The EC50 is the concentration giving half of the maximal effect. Higher therefore signals a less potent agent. Take `Cc1[nH]cnc1Cc1ccc2cccnc2c1C` [8-methyl-7-((5-methyl-1H-imidazol-4-yl)methyl)quinoline]: the half-maximal effective concentration (EC50) was 284 nM.

These data come from patent US20090286829A1, “QUINOLYNYLMETHYLIMIDIZOLES AS THERAPEUTIC AGENTS” (ALLERGAN, INC., priority 2008, published 2009).
